Earlier results as cited in US20140023701A1, “Method and Composition for Ameliorating the Effects tor a Subject Exposed to Radiation or Other Sources of Oxidative Stress” (priority 2011, published 2014).

Test system: Human
Details: no observed adverse event level, most sensitive subgroup

CC1=C(/C=C/C(C)=C/C=C/C(C)=C/C=C/C=C(C)/C=C/C=C(C)/C=C/C2=C(C)CCCC2(C)C)C(C)(C)CCC1 [Beta-carotene]
Human NOAEL: 25 mg
